We go through one molecule from ChEMBL document CHEMBL1132219, “Synthesis of novel phenserine-based-selective inhibitors of butyrylcholinesterase for Alzheimer's disease” (J Med Chem, 1999).

Sequences of proteins named here, by UniProt entry; tags and fusion partners are left off. A change or cut given only in a name is not applied to a line headed by its entry.
UniProt P06276, whole entry: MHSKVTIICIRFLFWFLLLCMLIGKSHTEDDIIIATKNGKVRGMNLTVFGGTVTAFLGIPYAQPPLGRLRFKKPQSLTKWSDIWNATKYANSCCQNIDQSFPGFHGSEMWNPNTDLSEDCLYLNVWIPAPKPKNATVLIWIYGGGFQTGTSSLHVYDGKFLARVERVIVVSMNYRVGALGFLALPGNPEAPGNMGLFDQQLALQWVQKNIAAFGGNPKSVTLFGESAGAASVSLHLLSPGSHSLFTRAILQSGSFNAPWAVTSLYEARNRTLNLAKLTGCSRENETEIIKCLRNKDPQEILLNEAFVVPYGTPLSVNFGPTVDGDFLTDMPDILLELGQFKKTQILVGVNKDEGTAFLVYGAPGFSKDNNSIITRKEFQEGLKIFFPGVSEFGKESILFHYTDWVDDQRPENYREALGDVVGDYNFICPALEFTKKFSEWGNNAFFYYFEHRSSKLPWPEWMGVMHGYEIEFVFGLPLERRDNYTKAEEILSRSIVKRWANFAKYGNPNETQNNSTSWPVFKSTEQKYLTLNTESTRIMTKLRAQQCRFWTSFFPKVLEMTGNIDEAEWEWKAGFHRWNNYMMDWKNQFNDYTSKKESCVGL
UniProt P22303: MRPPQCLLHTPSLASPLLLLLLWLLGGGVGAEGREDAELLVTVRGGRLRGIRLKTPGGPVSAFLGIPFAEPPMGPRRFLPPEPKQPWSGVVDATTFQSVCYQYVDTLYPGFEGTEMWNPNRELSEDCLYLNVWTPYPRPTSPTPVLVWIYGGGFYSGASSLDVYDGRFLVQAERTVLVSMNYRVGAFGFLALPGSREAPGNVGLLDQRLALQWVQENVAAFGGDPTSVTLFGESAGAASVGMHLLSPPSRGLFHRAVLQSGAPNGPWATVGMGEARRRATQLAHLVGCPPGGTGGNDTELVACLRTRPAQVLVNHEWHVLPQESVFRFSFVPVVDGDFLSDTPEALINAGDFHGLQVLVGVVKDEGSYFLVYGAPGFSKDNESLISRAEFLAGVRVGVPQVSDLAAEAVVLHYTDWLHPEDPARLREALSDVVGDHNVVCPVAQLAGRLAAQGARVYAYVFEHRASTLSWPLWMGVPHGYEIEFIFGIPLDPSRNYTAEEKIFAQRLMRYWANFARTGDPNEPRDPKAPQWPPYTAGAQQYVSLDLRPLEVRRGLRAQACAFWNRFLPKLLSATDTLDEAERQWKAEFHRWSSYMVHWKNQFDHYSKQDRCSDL

Usually IC50 stands for the concentration that inhibits the measured activity by half. Higher therefore signals weaker potency.

One assay addresses Cholinesterase (Homo sapiens, UniProt P06276). Nature of the assay: Ability to inhibit butyrylcholinesterase (BChE), freshly prepared from human plasma. Format: cell-free.
The next assay addresses Acetylcholinesterase (Homo sapiens, UniProt P22303). Description: Ability to inhibit acetylcholinesterase (AChE), freshly prepared from human erythrocytes. The gist of the method:
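AChE from freshly collected blood: erythrocytes washed five times in isotonic saline, lysed in 9 volumes of 0.1 M Na3PO4 pH 7.4 with 0.5% Triton-X, diluted to final 1:200. Compounds preincubated with enzyme 30 min at room temperature, then with substrate and DTNB 25 min at 37 °C, pH 8.0. Read-out 412 nm. Final range 0.3 nM–30 mM in half-log steps. IC50 from logit-activity versus log concentration. Four runs.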

Molecules are shown by their SMILES.

For `CC(C)c1ccc(NC(=O)Oc2ccc3c(c2)[C@]2(C)CCN(C)C2N3C)cc1` (some centres not stated), the IC50 at Cholinesterase was found to be 50 nM; against Acetylcholinesterase, 758 nM.
